Assay results published in BindingDB's records for doi:10.1021/jm8006933 (Duquesne University, 2008).

Experiments:
[1] = target: T1, Bifunctional dihydrofolate reductase-thymidylate synthase (Toxoplasma gondii, UniProt Q07422)
T1 sequence (Q07422 whole entry): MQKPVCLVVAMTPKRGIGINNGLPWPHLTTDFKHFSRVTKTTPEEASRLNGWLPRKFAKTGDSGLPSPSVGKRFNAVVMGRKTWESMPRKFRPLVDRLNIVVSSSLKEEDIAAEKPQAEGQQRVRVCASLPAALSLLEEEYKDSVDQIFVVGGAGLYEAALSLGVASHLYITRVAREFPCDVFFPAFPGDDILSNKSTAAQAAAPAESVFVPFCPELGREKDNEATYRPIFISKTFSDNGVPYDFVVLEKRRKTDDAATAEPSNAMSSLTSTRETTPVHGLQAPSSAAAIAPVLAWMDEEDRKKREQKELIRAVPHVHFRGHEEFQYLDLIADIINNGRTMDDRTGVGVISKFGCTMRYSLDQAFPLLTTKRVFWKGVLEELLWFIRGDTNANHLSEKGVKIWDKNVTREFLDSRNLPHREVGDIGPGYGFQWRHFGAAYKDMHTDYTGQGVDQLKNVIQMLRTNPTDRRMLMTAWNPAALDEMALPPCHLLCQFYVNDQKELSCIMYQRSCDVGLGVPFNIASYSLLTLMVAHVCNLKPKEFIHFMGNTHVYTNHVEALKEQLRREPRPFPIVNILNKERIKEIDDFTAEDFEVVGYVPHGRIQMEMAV

[2] = target: T1, Bifunctional dihydrofolate reductase-thymidylate synthase; remark: listed apart in the source

Q: For `Cc1sc2nc(N)[nH]c(=O)c2c1Sc1ccc(C(=O)N(CCC(=O)O)C(=O)O)cc1` [N-{4-[(2-Amino-6-methyl-4-oxo-3,4-dihydrothieno[2,3-d]pyrimidin-5-yl)sulfanyl]benzoyl}-L-glutamic acid], which IC50 [1] is on record?
A: 0.036 µM

Q: What about the IC50 [2] of the same compound?
A: 0.008 µM
